Data on 1 compound can be found in ChEMBL document CHEMBL1135549, “Oxygenated metabolites of anandamide and 2-arachidonoylglycerol: conformational analysis and interaction with cannabinoid receptors, membrane transporter, and fatty acid amide hydrolase” (J Med Chem, 2002).

Molecules are shown by their SMILES.

For orientation: Ki means a measure of affinity in units of concentration, obtained from inhibition or displacement.

This experiment concerns the target T1, Cannabinoid receptor 2 (Rattus norvegicus, UniProt Q9QZN9).
T1 sequence (Q9QZN9 whole entry): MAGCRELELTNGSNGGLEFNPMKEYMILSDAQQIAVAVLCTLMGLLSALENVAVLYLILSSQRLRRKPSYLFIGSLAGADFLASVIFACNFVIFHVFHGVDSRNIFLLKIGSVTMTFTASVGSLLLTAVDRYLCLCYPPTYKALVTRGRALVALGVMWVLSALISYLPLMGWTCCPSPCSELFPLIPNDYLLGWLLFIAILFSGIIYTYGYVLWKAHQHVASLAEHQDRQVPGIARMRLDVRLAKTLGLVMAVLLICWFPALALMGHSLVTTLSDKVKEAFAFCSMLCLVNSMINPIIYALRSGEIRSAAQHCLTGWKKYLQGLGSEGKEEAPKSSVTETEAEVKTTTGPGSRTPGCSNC
Nature of the experiment: Displacement of [3H]CP-55940 from rat forebrain membrane which expresses Cannabinoid receptor 2 in the presence of PMSF.

Regarding `CCCCC/C=C\C/C=C\C/C=C\C/C=C\CCCC(=O)NCCO` [ANANDAMIDE], the Ki came out at 360 nM.
